Measured values from PubChem BioAssay AID2097 (Broad Institute, 2009).
This is a selection; strong and weak results do not stand in their true shares. Active and inactive are the calls of the source.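 The calls were made as follows: active = more than half of replicate wells score below -50%, meaning over 50% inhibition versus plate controls; inconclusive = some replicates but at most half score below -50%; inactive = no replicate scores below -50%.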

By UniProt entry, the sequences of proteins in these tests, tags left out.
UniProt P49841, whole entry: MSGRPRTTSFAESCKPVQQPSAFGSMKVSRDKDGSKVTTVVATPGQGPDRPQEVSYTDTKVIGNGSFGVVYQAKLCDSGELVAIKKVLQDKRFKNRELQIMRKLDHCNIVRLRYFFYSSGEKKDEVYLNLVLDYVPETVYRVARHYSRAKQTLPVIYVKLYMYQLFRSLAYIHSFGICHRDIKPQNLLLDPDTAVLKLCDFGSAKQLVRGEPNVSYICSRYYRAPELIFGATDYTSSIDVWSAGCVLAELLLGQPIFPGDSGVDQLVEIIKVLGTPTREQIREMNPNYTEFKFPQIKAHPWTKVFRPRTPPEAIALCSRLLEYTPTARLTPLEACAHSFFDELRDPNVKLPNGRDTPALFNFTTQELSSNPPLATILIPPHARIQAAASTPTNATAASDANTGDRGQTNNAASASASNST

The compounds below were run against Glycogen synthase kinase-3 beta (Homo sapiens) (UniProt P49841) (assay: human GSK3beta kinase inhibitors, primary screen, biochemical, cell-free homogeneous, HTS (AID 2097;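 also: 0% = median DMSO wells and -100% = median GW8510 positive control wells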)). Details: GST-GSK3beta kinase, ADP-Glo luminescence, 60 min; at 10 µM; stronger effect = lower value.
CN1CCC(Nc2cccc(F)c2)CC1 was tested, and the activity score (negative = inhibition) was inactive: -0.802%. With CCCOc1ccc(C(=O)NCC2(N(C)C)CCCCC2)cc1OC the activity score (negative = inhibition) was inactive: -0.622%. O=C(NCC1(N2CCCCC2)CCCCC1)c1ccc(OC(F)F)cc1 was tested, and the activity score (negative = inhibition) was inactive: -1.23%. O=C(NCC1(N2CCCCC2)CCCCC1)c1cccc([N+](=O)[O-])c1 was tested, and the activity score (negative = inhibition) was inactive: -0.87%. With N#CC1(Nc2ccccc2)CCN(CCc2ccccc2)CC1 the activity score (negative = inhibition) was inactive: -1.81%. CCN1CCC(Nc2ccc(Cl)cc2)CC1 was tested, and the activity score (negative = inhibition) was inactive: -1.78%. For O=C(NCC1(N2CCCCC2)CCCCC1)c1cccc(C(F)(F)F)c1, the activity score (negative = inhibition) was inactive: 0.341%. For COc1ccc(NC2CCN(C(=O)OC(C)(C)C)CC2)cc1, the activity score (negative = inhibition) was inactive: 0.317%. CN1CCN(CCOC(=O)C(O)(c2ccccc2)c2ccccc2)CC1 was tested, and the activity score (negative = inhibition) was inactive: 7.35%. In the case of O=C(NCC1(N2CCOCC2)CCCCC1)c1cc(=O)[nH]c2ccccc12, the activity score (negative = inhibition) is reported as inactive: -0.779%. With COc1cc(C(=O)NCC2(N3CCCCC3)CCCCC2)ccc1OC(F)F the activity score (negative = inhibition) was inactive: 3.95%. In the case of CCOc1ccc(C)cc1CN(CCCl)CCCl, the activity score (negative = inhibition) is reported as inactive: -0.19%. For CCOC(=O)N1CCC(Nc2ccc(F)cc2)CC1, the activity score (negative = inhibition) was inactive: -4.84%. In the case of COc1ccc(NC2CCN(CCc3ccccc3)CC2)c(OC)c1, the activity score (negative = inhibition) is reported as inactive: -3.5%. For O=C(NCC1(N2CCCCC2)CCCCC1)c1ccc(F)cc1, the activity score (negative = inhibition) was inactive: -5.31%. Cc1ccc(OCC(C)C)c(CN(CCCl)CCCl)c1 was tested, and the activity score (negative = inhibition) was inactive: -1.22%. In the case of COc1cc(C(=O)NCC2(N(C)C)CCCCC2)ccc1OC(F)F, the activity score (negative = inhibition) is reported as inactive: -1.21%. In the case of CCOC(=O)N1CCC(Nc2cccc(C)c2)CC1, the activity score (negative = inhibition) is reported as inactive: -0.625%. O=C(NCC1(N2CCCCC2)CCCCC1)c1cccs1 was tested, and the activity score (negative = inhibition) was inactive: 1.94%. With O=C(NCC1(N2CCCCC2)CCCCC1)c1ccc(=O)[nH]c1 the activity score (negative = inhibition) was inactive: 1.7%. With CC(C)(C)OC(=O)N1CCC(N(C(=O)c2ccccc2)c2ccc(F)cc2)CC1 the activity score (negative = inhibition) was inactive: 4.48%. With COc1ccc(C(=O)NCC2(N3CCCCC3)CCCCC2)c(OC)c1OC the activity score (negative = inhibition) was inactive: -0.61%. With COc1ccc(C(=O)NCC2(N3CCCCC3)CCCCC2)cc1 the activity score (negative = inhibition) was inactive: -0.58%. In the case of O=C(NCC1(N2CCOCC2)CCCCC1)c1cc2ccccc2o1, the activity score (negative = inhibition) is reported as inactive: 2.26%. Cc1cc(C)cc(N(C(=O)c2ccccc2)C2CCN(C(=O)OC(C)(C)C)CC2)c1 was tested, and the activity score (negative = inhibition) was inactive: -4%. In the case of O=C(NCC1(N2CCCCC2)CCCCC1)c1ccc(Cl)nc1, the activity score (negative = inhibition) is reported as inactive: 2.02%. CCOC(=O)N1CCC(Nc2ccc(OC)cc2)CC1 was tested, and the activity score (negative = inhibition) was inactive: -0.582%. For O=C(OC1CN2CCC1CC2)C1c2ccccc2Oc2ccccc21 (centres undefined), the activity score (negative = inhibition) was inactive: 2.71%. N#CC1(Nc2ccccc2)CCN(Cc2ccccc2)CC1 was tested, and the activity score (negative = inhibition) was inactive: 1.03%.
